Values of other authors as cited in patent US10883993B2, “P53 biomarkers” (MULTIVIR INC., priority 2008, dated 2021).

System: SCCHN
Conditions: monotherapy studies in SCCHN, ITT population, standard of care drugs; cited from earlier work

Substance: Cetuximab: monoclonal antibody ERBITUX® (cetuximab)
- Median Overall Survival: 5.8 months
